Data from US7759438B2, “Polymerization process for preparing (co)polymers” (dated 2010).
Like-named read-outs stand apart in the source and are kept apart here.

Assays:
[1] = Half life of organic peroxide at the polymerization temperature; conditions: at the polymerization temperature of 57° C.
[2] = Solubility of organic peroxide in water at 0° C. (1H-NMR of water phase)

| Structure (SMILES) | half life [1] [min] | Solubility in water 0° C. [2] [ppm] | Solubility in water 0° C. ([2]; listed as di(2-ethylhexyl) peroxy-dicarbonate) [ppm] |
| --- | --- | --- | --- |
| CC(C)C(=O)OOC(=O)C(C)C | 6 | 35 | – |
| CCCCC(CC)COC(=O)OOC(=O)OCC(CC)CCCC (stereo not shown) | 144 | <1 | < 1 |
| CCCCCCCCCCCC(=O)OOC(=O)C(C)C | 24 | 2 | – |
